scFv variants of Ab-14 (heavy chain) against a SARS-CoV-2 spike peptide

Binding partner: SARS-CoV-2 spike HR2 peptide, sequence PDVDLGDISGINAS.

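The starting antibody came from a phage panning campaign against this peptide. Designed CDR sequences, proposed from the first random library and measured here. Several design methods are mixed in this list. Affinity was read by AlphaSeq, a pooled yeast mating assay with surface-displayed partners. Mating (16 h, 30 °C) was followed by selection of diploids and sequencing of their barcodes. Scores were corrected for input abundance and mapped to Kd with protein pairs of known affinity run in the same pool. There are six technical replicates.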

Ab-14 is the parent antibody, in scFv form: VH, then three GGGGS repeats, then VL. The light chain is unchanged in all variants.
VH: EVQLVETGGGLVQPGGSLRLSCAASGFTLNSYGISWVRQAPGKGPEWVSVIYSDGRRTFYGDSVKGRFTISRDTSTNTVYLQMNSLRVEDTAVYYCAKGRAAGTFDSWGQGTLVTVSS
VL: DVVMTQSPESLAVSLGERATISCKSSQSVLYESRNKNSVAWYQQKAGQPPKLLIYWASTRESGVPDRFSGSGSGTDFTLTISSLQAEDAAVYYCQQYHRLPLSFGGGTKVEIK

Each variant is given by its three heavy chain CDRs, as the data file delimits them; those of the parent are GFTLNSYGIS, VIYSDGRRTFYGDSVK, GRAAGTFDS.
The read-out is the apparent dissociation constant on a log10 scale (nM): the lower, the stronger.
Averages over replicates are reported, and they cover detected replicates only.
A pair that was not seen in any replicate is written "not detected"; this usually means weak binding, but a binder can also be missed.
Empty control strains, which show no peptide, gave a signal in 1% of pairings with all heavy chain designs; the median was 2.08 and 95% of these signals were weaker than 0.84. No background was subtracted. For each scFv, signals with the empty controls are counted beside the result.
The range of this assay differs from that of the first round, and the authors advise against merging the two.
The authors' rule: three or more of the six replicates give a measured affinity, fewer mean a poor binder.

CDR-H1 | CDR-H2 | CDR-H3 | mean log10 Kd (nM) | seen in | control signals
GFTLNSYGIS | VIYSDGLRTFYADSVK | GSEAGTFDS | 0.77 | 6/6 | 0/18
GFTLNSYGIS | VIYSDGRRTFYGDEVK | GQNAGTFDL | 2.27 | 5/6 | 0/18
GFDLNEYGIS | VIYADGMRTFYTDSVK | GEFAGTFDV | 0.13 | 6/6 | 1/18
GYSLDDYGIS | VIYADGKRKSYAEDVK | GNVGGSFMN | not detected | 0/6 | 0/18
GFSLNSYGIS | VIYSDGRRTFYQDNVK | GEAAGTFDS | -0.31 | 6/6 | 0/18
SFTLNEYGIS | VIYSDGRRTFYGDSVK | GRAAVTFDQ | 1.13 | 6/6 | 1/18
GFDLNEYGIS | VIYADGRRTAYADKVK | GENAGTFDI | -0.31 | 6/6 | 0/18
KFNLNSYGIS | VIYSDGRRTFYGDSVK | GQTAGTFDS | 0.68 | 6/6 | 0/18
GFTLNSYGIS | VIYSDGERTFYGDSVK | GRDAGQFDS | not detected | 0/6 | 0/18
GFDLNEYGIS | VIYADGRRTAYSDSVK | GNVAGTFDL | -0.49 | 6/6 | 0/18
GFDLNEYGIS | VIYADGRRTAYVQSVK | GKNNVVDSV | not detected | 0/6 | 1/18
GFTLNSYGIS | VLYSDGRRCFYGDSVK | GRAAGTFDS | not detected | 0/6 | 0/18
GFTLNQYGIS | VIYSDARRTFYSDSVK | GRAAGFFDS | not detected | 0/6 | 3/18
GFDLNEYGIS | VIYADGHRTQYSNNVK | GGQGGIGLS | not detected | 0/6 | 2/18
GFKLNSYGIS | VIYSDGRRTFYHDSVK | GKNAGTFDS | 1.59 | 2/6 | 0/18
GFTLNDYGIR | VIYADGRRTQYIDSVK | GRGAGTFDS | not detected | 0/6 | 0/18
GESLDSYGIS | VIYADGMRTSYDNSVK | GVWAGTFDG | not detected | 0/6 | 0/18
GFTLDAYGIS | VIYSDGRRTFYGDSVK | GRAAGTALS | not detected | 0/6 | 1/18
GFTLNSYGIS | VIYSDGRRFFYGDSVK | SSVAGTFDD | not detected | 0/6 | 0/18
GFTLNSYGIS | VIYSDGRRTFYGDSVK | GRVKGTFRS | not detected | 0/6 | 0/18
GFVLNDYGIS | VIYSDGRRTAYIDSVK | GRAAGTFDS | 0.49 | 6/6 | 1/18
GFDLNSYGIS | VIYSDGRRTFYIDSVK | GKVAGTFDS | 0.23 | 6/6 | 0/18
GFTLNSYGIS | VIYSDGRRTFYGDKVK | GRAAGTFRS | not detected | 0/6 | 0/18
GFDINEYGIS | VIYADGRRTAYADSVK | GNVAGTFDV | -0.54 | 6/6 | 0/18
GFTLNNYGIS | VIYSDGRRTFYGDSVK | GRNAGTFDS | 1.74 | 5/6 | 0/18
GFTLNEYGIS | VIYSDGRRTFYGDDVK | GEAAGTFKS | 1.01 | 6/6 | 2/18
GFDLNSYGIS | VIYSDGRRTFYGDQVK | GEAAGTFDS | 0.60 | 6/6 | 1/18
GFELNMYGIS | VIYSDGRRTFYGDSVK | GRTAGTFDT | 0.84 | 6/6 | 0/18
GFDLDEYGIS | VIYADGSRTAYADSVK | GNVAGTFDT | -0.70 | 6/6 | 0/18
GFNLEEYGIS | VIYADGRRQFYVDTVK | GSDDGLNAM | not detected | 0/6 | 0/18
GFSLNSYGIS | VIYSDGRRTFYADAVK | GNAAGTFDS | 0.26 | 6/6 | 0/18
GFDLNSYGIS | VIYSDGRRTFYADSVK | GRIAGTFDS | 0.33 | 6/6 | 0/18
GFDLDEYGIS | VIYADGKRSAYHDSFK | GQLGKVSIV | not detected | 0/6 | 0/18
GFSLNSYGIS | VIYSDGRRTFYRDAVK | GKTAGTFDS | 1.60 | 5/6 | 0/18
GFDLNSYGIS | VIYSDGRRTFYGDRVK | GRTAGTFDS | 0.16 | 6/6 | 0/18
GFDLGEYGIS | VIYADGQRRFYQDAVK | GQSSVNYLA | 0.75 | 6/6 | 0/18
GFNLDEYGVS | VIYADGHRTAYVNTVK | GKTGFVDDD | not detected | 0/6 | 0/18
GFTLSEYGIS | VIYADGVRVEYTDSVK | GSLGGSFLV | not detected | 0/6 | 0/18
GFSLNSYGIS | VIYSDGRRTFYDDSVK | GWAAGTFDS | 1.54 | 4/6 | 0/18
GFTLNSYGIS | VIYADGRRTFYGDSVK | CRAAGTFDS | 1.32 | 1/6 | 0/18
GFELNSYGIS | VIYADGRRTFYGDSVK | GRTAGTFDA | 0.14 | 6/6 | 0/18
GFTLNSYGIS | VIYSDGRRTFYIDSVK | GDAAGTFDS | not detected | 0/6 | 0/18
GFTLNSYGIS | VIYSDGVRTFYGDSVK | GRLAGTFDS | 0.73 | 6/6 | 0/18
GFTLNSYGIS | VIYADGRRTFYGDDVK | GRAAGTFTS | 2.90 | 2/6 | 0/18
GFELNNYGIS | VIYSDGRRTFYGDSVK | GKTAGTFDS | not detected | 0/6 | 0/18
GFDLDEYGIS | VIYADGTRTAYADSVK | GNVAGTFDV | -0.37 | 6/6 | 1/18

3 of these entries, quoted again:

{"CDR-H1": "GFTLNSYGIS", "CDR-H2": "VIYADGRRTFYGDDVK", "CDR-H3": "GRAAGTFTS", "mean log10 Kd (nM)": "2.90", "seen in": "2/6", "control signals": "0/18"}
{"CDR-H1": "GFSLNSYGIS", "CDR-H2": "VIYSDGRRTFYADAVK", "CDR-H3": "GNAAGTFDS", "mean log10 Kd (nM)": "0.26", "seen in": "6/6", "control signals": "0/18"}
{"CDR-H1": "GFDLNEYGIS", "CDR-H2": "VIYADGMRTFYTDSVK", "CDR-H3": "GEFAGTFDV", "mean log10 Kd (nM)": "0.13", "seen in": "6/6", "control signals": "1/18"}

The measurements come from Li et al. 2023 (doi:10.1038/s41467-023-39022-2) through the FLAb antibody collection.